Laboratory results: patent US20040204474A1, “Carvedilol-lipophilic solutions” (priority 2000, published 2004)

Columns and labels:
[1] = gastrointestinal resorption after peroral administration; assay type: in vivo; settings: passage through the gastrointestinal tract
[2] = solubility of carvedilol in adjuvants and solvents with lipophilic character; assay type: physicochemical

For `COc1ccccc1OCCNCC(O)COc1cccc2[nH]c3ccccc3c12` (centres unmarked) [carvedilol, 1-(4-carbazolyloxy)-3-[2-(2-methoxyphenoxy)ethyl-amino]-2-propanol], the “resorption in ileum and colon relative to stomach” value [1] was “only a fraction of the resorption in the stomach” and the “dissolving properties of diethylene glycol monoethyl ether (Transcutol P) for carvedilol” value [2] was “similarly good dissolving properties”.
